Test results taken from ChEMBL document CHEMBL1143315, “Investigation of ketone warheads as alternatives to the nitrile for preparation of potent and selective cathepsin K inhibitors” (Bioorg Med Chem Lett, 2009).

Experiments:
Homo sapiens [1] = organism: Homo sapiens; assay: Selectivity ratio of IC50 for human cathepsin L to IC50 for humanized rabbit cathepsin K
Homo sapiens [2] = organism: Homo sapiens; assay: Selectivity ratio of IC50 for human cathepsin B to IC50 for humanized rabbit cathepsin K
Homo sapiens [3] = organism: Homo sapiens; assay: Selectivity ratio of IC50 for human cathepsin S to IC50 for humanized rabbit cathepsin K
Rattus norvegicus = organism: Rattus norvegicus; assay: Metabolic stability in rat hepatocytes assessed as compound remaining after 2 hrs

Row | Ratio IC50 (Homo sapiens [1]) | Ratio IC50 (Homo sapiens [2]) | Ratio IC50 (Homo sapiens [3]) | remaining at 2 h (Rattus norvegicus) | SMILES
1 | 861 | 215 | 185 | 20% | CCOC(=O)N1CC(=O)C(NC(=O)[C@H](CC(C)(C)F)N[C@@H](c2ccc(-c3ccc(S(C)(=O)=O)cc3)cc2)C(F)(F)F)C1 (some centres not stated)
2 | 118 | 118 | 27 | 15% | CC(C)(F)C[C@H](N[C@@H](c1ccc(-c2ccc(S(C)(=O)=O)cc2)cc1)C(F)(F)F)C(=O)NC1CN(S(=O)(=O)c2ccccn2)CC1=O (some centres not stated)
3 | 604 | 637 | 304 | 11% | COC(=O)N1CC(=O)C(NC(=O)[C@H](CC(C)(C)F)N[C@@H](c2ccc(-c3ccc(S(C)(=O)=O)cc3)cc2)C(F)(F)F)C1 (some centres not stated)
